Measurements reported in patent publication US20230242544A1, “QUINAZOLINE COMPOUNDS, PREPARATION METHODS AND USES THEREOF” (INVENTISBIO CO., LTD., priority 2020, published 2023).

By UniProt entry, the sequences of proteins in these tests, tags left out.
UniProt P01116, whole entry G12D: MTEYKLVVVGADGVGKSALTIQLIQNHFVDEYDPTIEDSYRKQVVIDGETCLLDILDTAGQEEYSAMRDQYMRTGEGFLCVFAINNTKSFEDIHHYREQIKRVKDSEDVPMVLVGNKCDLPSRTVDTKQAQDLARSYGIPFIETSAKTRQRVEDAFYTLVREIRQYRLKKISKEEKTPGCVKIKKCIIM

Target: Ba/F3_KRAS^G12D cells (Homo sapiens, UniProt P01116, G12D, cells depend on it)
Test: Ba/F3 KRAS G12D cell proliferation assay (CellTiter-Glo)
Details: read-out: BaF3_KRAS^G12D IC50, treated for 3 days, cell-titer Glo, cell growth inhibition, tested form: 3TFA

## C#Cc1c(F)ccc2cc(O)cc(-c3c(C#N)cc4c(N5CC6CCC(C5)N6)nc(OC[C@@]56CCCN5C[C@H](F)C6)nc4c3F)c12 (single isomer, unassigned)
  GI50: < 500 nM
